Laboratory results from patent US7229825B2, “Double-transfected cell line useful for the identification of transport inhibitors” (Deutches Krebsforschungszentrum Stiftung des Offentlichen …, priority 2001, dated 2007).

Tested on: human OATP8 and MRP2 (MDCK-MRP2/OATP8 cells)
Assay: Transcellular transport of organic anions across MDCK-MRP2/OATP8 cells on Transwell membrane inserts
Details: substrate in basolateral compartment, 37° C., apical compartment measured; MDCK-MRP2/OATP8 compared with MDCK-OATP8, MDCK-Co (and MDCK-MRP2) cells

In the case of “dehydroepiandrosterone 3-sulfate [DHEAS]”, the “transcellular transport (basolateral to apical)” value is reported as “much higher velocities”.
